# Test results taken from patent US20070203109A1, “Compounds And Compositions For Treatment Of Cancer” (priority 2004, published 2007).
# System: Xenografts derived from NSCLC cell lines with high levels of DTD
# Details: NSCLC (high DTD) vs SCLC (low DTD) derived xenografts
smiles,measurement,value
CO[C@@]12[C@H](COC(N)=O)C3=C(C(=O)C(C)=C(N)C3=O)N1C[C@@H]1N[C@@H]12 [Mitomycin C],susceptibility of xenografts to cytotoxic effects,more susceptible
